Apparent affinities of Ab-14 variants for a coronavirus HR2 peptide

All variants were tested on one target, the spike HR2 peptide PDVDLGDISGINAS (SARS-CoV-2).

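Phage display of a naive human antibody library on the peptide gave the parent. Variants in AAYL49 differ from the parent at up to three CDR positions; double and triple changes were sampled at random. Affinity was read by AlphaSeq, a pooled yeast mating assay with surface-displayed partners. Binding brings cells together so that they mate, and sequencing counts the barcode pairs among the diploids. Scores were corrected for input abundance and mapped to Kd with protein pairs of known affinity run in the same pool. Each pool was mated in three replicate cultures.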

Parent: Ab-14, a human scFv built as VH, the linker GGGGSGGGGSGGGGS, VL. Only the CDRs of the heavy chain vary.
VH: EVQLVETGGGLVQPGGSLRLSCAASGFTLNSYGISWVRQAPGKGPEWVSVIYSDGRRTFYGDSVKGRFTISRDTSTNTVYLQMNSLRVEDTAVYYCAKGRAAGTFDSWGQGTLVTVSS
VL: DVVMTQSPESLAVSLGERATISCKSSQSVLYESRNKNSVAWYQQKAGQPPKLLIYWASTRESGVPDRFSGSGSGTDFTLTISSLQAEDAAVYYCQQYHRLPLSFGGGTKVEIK

Changes read parent residue, position, new residue, counted from the first residue of the VH shown.
This list gathers variants with a substitution at F27 (VH, numbered from residue 1).
Numbers give log10(Kd / nM), so 0 is 1 nM and 3 is 1 µM. Smaller is tighter.
"ND" marks a missing value. The strain was present, yet no cells mated with the target were sequenced in that replicate, which points to weak or no binding.
Parent in this assay: reference entry 0.65, copy in this library 4.11 (one replicate of three).
Empty control strains, which show no peptide, gave a signal in 15% of pairings with library AAYL49; the median was 4.06 and 95% of these signals were weaker than 2.83. No background was subtracted.

changes,log10 Kd (nM) by replicate
F27K D54C D106L,5.35 3.69 4.55
F27V,2.71 2.64 2.81
F27C V64K,ND ND 2.75
F27G D54T,3.91 3.00 5.32
F27R I51C S53Y,ND ND ND
G26C F27K G103D,2.87 2.51 ND
F27G D54I G55L,6.48 4.12 5.30
F27K L29H K65W,ND 2.64 ND
F27L T28V A101G,2.00 2.10 2.00
F27V T28V V64T,ND ND ND
F27T Y52F K65L,ND ND ND
F27I Y32K S35H,ND ND 3.75
F27G L29T G99A,ND ND ND
F27T K65L D106W,3.23 2.73 3.20
F27V Y52S V64A,ND ND ND
F27E Y60G R100S,ND ND ND
F27W D62W,ND ND ND
F27I L29M I34G,ND 3.91 ND
F27A G61M S63P,ND 3.39 ND
F27R Y32W D54L,3.37 ND 3.24
F27Q V50D F105E,ND ND ND
F27Y G61T V64T,ND ND 3.55
F27T N30E,ND 2.85 ND
F27R F59E A101T,0.67 0.85 0.79
F27Y V50K Y52K,ND ND ND
F27D N30R V50R,4.47 ND ND
F27R A101N,ND ND ND
F27P F59H S63M,ND 2.00 ND
F27L S63M,ND 3.87 ND
F27Y S35E I51A,ND 4.35 ND
F27K N30K S63C,ND ND ND
F27A S35T D106I,ND ND ND
F27N Y60A D106L,ND ND ND
F27N Y52V G103F,ND ND 3.57
F27R N30F S107D,3.79 2.32 3.12

3 of these entries, quoted again:

changes,log10 Kd (nM) by replicate
F27N Y52V G103F,ND ND 3.57
F27G D54T,3.91 3.00 5.32
F27G L29T G99A,ND ND ND

Reference: Engelhart et al. 2022, doi:10.1038/s41597-022-01779-4. File: FLAb, binding data.